Data published in patent publication US9765070B2, “Substituted oxopyridine derivatives” (Bayer Pharma Aktiengesellschaft, priority 2013, dated 2017).

The chains behind the UniProt entries cited, without tags or fusion partners. Residues count along the entry.
UniProt P03952, 20-390 partner: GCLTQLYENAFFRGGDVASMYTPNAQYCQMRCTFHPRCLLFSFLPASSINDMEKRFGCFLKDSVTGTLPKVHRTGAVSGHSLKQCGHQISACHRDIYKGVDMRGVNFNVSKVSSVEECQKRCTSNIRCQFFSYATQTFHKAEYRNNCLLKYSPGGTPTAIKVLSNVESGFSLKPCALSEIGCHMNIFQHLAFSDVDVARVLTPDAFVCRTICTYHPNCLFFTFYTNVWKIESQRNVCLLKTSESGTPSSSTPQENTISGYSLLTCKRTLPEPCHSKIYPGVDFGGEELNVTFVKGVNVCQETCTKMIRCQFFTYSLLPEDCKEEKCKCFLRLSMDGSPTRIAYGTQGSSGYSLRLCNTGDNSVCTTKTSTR
UniProt P03952, 391-638: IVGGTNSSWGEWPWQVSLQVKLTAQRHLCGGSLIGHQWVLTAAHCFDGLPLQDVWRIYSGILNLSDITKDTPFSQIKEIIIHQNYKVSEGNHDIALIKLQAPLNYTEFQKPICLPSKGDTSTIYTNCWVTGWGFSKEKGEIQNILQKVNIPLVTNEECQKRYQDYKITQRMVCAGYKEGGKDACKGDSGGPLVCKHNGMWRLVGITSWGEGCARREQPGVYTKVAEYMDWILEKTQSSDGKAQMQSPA
UniProt P03951, 19-387 partner: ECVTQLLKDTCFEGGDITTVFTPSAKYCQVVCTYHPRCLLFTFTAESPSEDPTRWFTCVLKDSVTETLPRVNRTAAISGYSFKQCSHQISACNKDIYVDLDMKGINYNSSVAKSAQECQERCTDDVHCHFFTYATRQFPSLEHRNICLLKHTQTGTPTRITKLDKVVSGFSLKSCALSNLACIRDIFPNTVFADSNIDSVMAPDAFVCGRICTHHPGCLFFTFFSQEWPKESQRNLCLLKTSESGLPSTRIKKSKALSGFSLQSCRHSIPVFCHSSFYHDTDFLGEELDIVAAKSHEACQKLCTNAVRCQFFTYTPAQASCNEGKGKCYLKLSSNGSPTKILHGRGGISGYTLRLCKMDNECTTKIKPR
UniProt P03951, 388-625: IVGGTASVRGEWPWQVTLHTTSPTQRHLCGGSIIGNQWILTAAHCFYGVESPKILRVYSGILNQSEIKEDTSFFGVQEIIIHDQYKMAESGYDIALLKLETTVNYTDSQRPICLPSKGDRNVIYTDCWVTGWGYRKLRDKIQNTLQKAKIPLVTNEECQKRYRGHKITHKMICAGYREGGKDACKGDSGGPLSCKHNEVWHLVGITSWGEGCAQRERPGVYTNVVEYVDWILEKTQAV

Key:
human plasma kallikrein = human plasma kallikrein (Homo sapiens (Human), UniProt P03952); assay: Determination of the plasma kallikrein activity (fluorogenic substrate H-Pro-Phe-Arg-AMC); format: biochemical; conditions: plasma kallikrein from Kordia 0.6 nM, 15 min preincubation, 30 min at 22° C., fluorescence
Method: a.5) Determination of the Plasma Kallikrein Activity
(§1) To determine the plasma kallikrein inhibition of the substances according to the invention, a biochemical test system is used which utilizes the reaction of a peptidic plasma kallikrein substrate to determine the enzymatic activity of human plasma kallikrein. Here, plasma kallikrein cleaves from the peptic plasma kallikrein substrate the C-terminal aminomethylcoumarin (AMC), the fluorescence of which is measured. The determinations are carried out in microtitre plates.
Test substances are dissolved in dimethyl sulphoxide and serially diluted in dimethyl sulphoxide (3000 μM to 0.0078 μM; resulting final concentrations in the test: 50 μM to 0.00013 μM). In each case 1 μl of the diluted substance solutions is placed into the wells of white microtitre plates from Greiner (384 wells). 20 μl of assay buffer (50 mM Tris/HCl pH 7.4; 100 mM sodium chloride solution; 5 mM of calcium chloride solution; 0.1% of bovine serum albumin) and 20 μl of plasma kallikrein from Kordia (0.6 nM in assay buffer) are then added successively. After 15 min of incubation, the enzyme reaction is started by addition of 20 μl of the substrate H-Pro-Phe-Arg-AMC dissolved in assay buffer (10 μM in assay buffer) from Bachem, the mixture is incubated at room temperature (22° C.) for 30 min and fluorescence is then measured (excitation: 360 nm, emission: 460 nm). The measured emissions of the test batches with test substance are compared to those of control batches without test substance (only dimethyl sulphoxide instead of test substance in dimethyl sulphoxide), and IC50 values are calculated from the concentration/activity relationships.

human factor XIa = human factor XIa (Homo sapiens (Human), UniProt P03951); assay: Measurement of FXIa inhibition (fluorogenic peptide substrate Boc-Glu(OBzl)-Ala-Arg-AMC); format: biochemical; conditions: factor XIa from Kordia 0.45 nM, 15 min preincubation, 30 min at 22° C., fluorescence
Method: a.1) Measurement of FXIa Inhibition
as §1, with “The factor XIa” for “To determine the plasma kallikrein”, “invention is determined using” for “invention,”, “system” for “system is used”, “factor XIa” for “plasma kallikrein”, “factor XIa.” for “plasma kallikrein.”
In each case 1 μl of the diluted substance solutions is placed into the wells of white microtitre plates from Greiner (384 wells). 20 μl of assay buffer (50 mM of Tris/HCl pH 7.4; 100 mM of sodium chloride; 5 mM of calcium chloride; 0.1% of bovine serum albumin) and 20 μl of factor XIa from Kordia (0.45 nM in assay buffer) are then added successively. After 15 min of incubation, the enzyme reaction is started by addition of 20 μl of the factor XIa substrate Boc-Glu(OBzl)-Ala-Arg-AMC dissolved in assay buffer (10 μM in assay buffer) from Bachem, the mixture is incubated at room temperature (22° C.) for 30 min and fluorescence is then measured (excitation: 360 nm, emission: 460 nm). The measured emissions of the test batches with test substance are compared to those of control batches without test substance (only dimethyl sulphoxide instead of test substance in dimethyl sulphoxide), and IC50 values are calculated from the concentration/activity relationships.

Row | SMILES | pIC50 (human plasma kallikrein) | pIC50 (human factor XIa)
1 | COc1cn(C(CC2CCC2)C(=O)Nc2ccc3nc(C(=O)O)cn3c2)c(=O)cc1-c1cc(Cl)ccc1C#N (racemic) [Example 5, 6-({2-[4-(5-Chloro-2-cyanophenyl)-5-methoxy-2-oxopyridin-1(2H)-yl]-3-cyclobutylpropanoyl}-amino)imidazo[1,2-a]pyridine-2-carboxylic acid (racemate)] | 8.15 | 9.00
2 | COc1cn(C(Cc2ccccn2)C(=O)Nc2ccc3nccn3c2)c(=O)cc1-c1cc(Cl)ccc1C#N (racemic) [Example 28, 2-[4-(5-Chloro-2-cyanophenyl)-5-methoxy-2-oxopyridin-1(2H)-yl]-N-(imidazo[1,2-a]pyridin-6-yl)-3-(pyridin-2-yl)propanamide (racemate)] |  | 7.92
3 | COc1cn(C(C[C@H]2CC[C@H](O)CC2)C(=O)Nc2ccc3nccn3c2)c(=O)cc1-c1cc(Cl)ccc1C#N (mixture of isomers) [Example 16, 2-[4-(5-Chloro-2-cyanophenyl)-5-methoxy-2-oxopyridin-1(2H)-yl]-3-(trans-4-hydroxycyclohexyl)-N-(imidazo[1,2-a]pyridin-6-yl)propanamide (racemate)] | 7.77 | 
4 | COCCC(C(=O)Nc1ccn2nccc2c1)n1cc(Cl)c(-c2cc(Cl)ccc2C#N)cc1=O (racemic) [Example 37, 2-[5-Chloro-4-(5-chloro-2-cyanophenyl)-2-oxopyridin-1(2H)-yl]-4-methoxy-N-(pyrazolo[1,5-a]pyridin-5-yl)butanamide (racemate)] | 7.19 | 7.54
5 | COc1cn(C(C[C@@H]2CCCCO2)C(=O)Nc2ccc3nc(C(=O)O)cn3c2)c(=O)cc1-c1cc(Cl)ccc1C#N (mixture of isomers) [Example 9, 6-({2-[4-(5-Chloro-2-cyanophenyl)-5-methoxy-2-oxopyridin-1(2H)-yl]-3-[(2S)-tetrahydro-2H-pyran-2-yl]propanoyl}amino)imidazo[1,2-a]pyridine-2-carboxylic acid (mixture of enantiomerically pure diastereomers)] |  | 9.30
6 | CCC(C(=O)Nc1ccn2nccc2c1)n1cc(OC)c(-c2cc(Cl)ccc2C#N)cc1=O (racemic) [Example 34, 2-[4-(5-Chloro-2-cyanophenyl)-5-methoxy-2-oxopyridin-1(2H)-yl]-N-(pyrazolo[1,5-a]pyridin-5-yl)butanamide (racemate)] |  | 7.68
7 | CCC(C(=O)Nc1cn2cc(C(=O)O)ccc2n1)n1cc(OC)c(-c2cc(Cl)ccc2C#N)cc1=O (racemic) [Example 1, 2-({2-[4-(5-Chloro-2-cyanophenyl)-5-methoxy-2-oxopyridin-1(2H)-yl]butanoyl}amino)imidazo[1,2-a]pyridine-6-carboxylic acid (racemate)] | 6.85 | 
8 | CCC(C(=O)Nc1ccc2nc(C(=O)O)cn2c1)n1cc(OC)c(-c2cc(Cl)ccc2OC(F)F)cc1=O (racemic) [Example 7, 6-[(2-{4-[5-Chloro-2-(difluoromethoxy)phenyl]-5-methoxy-2-oxopyridin-1(2H)-yl}butanoyl)amino]-imidazo[1,2-a]pyridine-2-carboxylic acid (racemate)] | 6.82 | 
9 | CCC(C(=O)Nc1ccn2nccc2c1)n1cc(C(=O)O)c(-c2cc(Cl)ccc2C#N)cc1=O (racemic) [Example 39, 4-(5-Chloro-2-cyanophenyl)-6-oxo-1-[1-oxo-1-(pyrazol[1,5-a]pyridin-5-ylamino)butan-2-yl]-1,6-dihydropyridine-3-carboxylic acid (racemate)] | 5.74 | 6.74
10 | CCOC(=O)c1cnc2ccc(NC(=O)C(CCOC)n3cc(OC)c(-c4cc(Cl)ccc4C#N)cc3=O)cn12 (racemic) [Example 10, Ethyl 6-({2-[4-(5-chloro-2-cyanophenyl)-5-methoxy-2-oxopyridin-1(2H)-yl]-4-methoxybutanoyl}amino)imidazo[1,2-a]pyridine-3-carboxylate (racemate)] |  | 7.44
11 | COCCC(C(=O)Nc1ccc2nncn2c1)n1cc(OC)c(-c2cc(Cl)ccc2C#N)cc1=O (racemic) [Example 21, 2-[4-(5-Chloro-2-cyanophenyl)-5-methoxy-2-oxopyridin-1(2H)-yl]-4-methoxy-N-([1,2,4]triazolo[4,3-a]pyridin-6-yl)butanamide (racemate)] | 8.10 | 
12 | CCC(C(=O)Nc1ccc2nccn2c1)n1cc(OC)c(-c2cc(Cl)ccc2C#N)cc1=O (racemic) [Example 4, 2-[4-(5-Chloro-2-cyanophenyl)-5-methoxy-2-oxopyridin-1(2H)-yl]-N-(imidazo[1,2-a]pyridin-6-yl)butanamide (racemate)] |  | 7.19
13 | COc1cn(C(Cc2cocn2)C(=O)Nc2ccc3nccn3c2)c(=O)cc1-c1cc(Cl)ccc1C#N (racemic) [Example 32, 2-[4-(5-Chloro-2-cyanophenyl)-5-methoxy-2-oxopyridin-1(2H)-yl]-N-(imidazo[1,2-a]pyridin-6-yl)-3-(1,3-oxazol-4-yl)propanamide (racemate)] | 7.44 | 
14 | COCCC(C(=O)Nc1ccc2nnc(CN3CCOCC3)n2c1)n1cc(OC)c(-c2cc(Cl)ccc2C#N)cc1=O (racemic) [Example 26, 2-[4-(5-Chloro-2-cyanophenyl)-5-methoxy-2-oxopyridin-1(2H)-yl]-4-methoxy-N-[3-(morpholin-4-ylmethyl)[1,2,4]triazolo[4,3-a]pyridin-6-yl]butanamide (racemate)] | 7.92 | 
15 | COCCC(C(=O)Nc1ccn2nccc2c1)n1cc(Cl)c(-c2cc(Cl)ccc2C#N)cc1=O (single isomer, unassigned; enantiomer 1) [Example 38, 2-[5-Chloro-4-(5-chloro-2-cyanophenyl)-2-oxopyridin-1(2H)-yl]-4-methoxy-N-(pyrazolo[1,5-a]pyridin-5-yl)butanamide (enantiomer 1)] | 7.54 | 7.82

pIC50: −log10 of the molar value.
